Consider 1 substance from patent publication US20110236309A1.

For test [1], the target named is TGF-β1 (Homo sapiens (Human)) (UniProt P01137).
The target of test [2] is T1, TGF-β3 (Homo sapiens (Human)) (UniProt P10600).
T1 sequence: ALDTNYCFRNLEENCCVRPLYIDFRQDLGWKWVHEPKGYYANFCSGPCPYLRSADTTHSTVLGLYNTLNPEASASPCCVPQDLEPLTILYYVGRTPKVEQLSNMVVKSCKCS

Substance “TβRII-Fc (R&D Systems) (from UniProt P37173) (Fc fusion)” had an IC50 for TGF-β1 (neutralization, Mv1Lu luciferase reporter cells) in test [1] of 506 pM. In test [2], this substance had an IC50 for TGF-β3 (neutralization, Mv1Lu luciferase reporter cells) of 323 pM.
